The source of these data is patent publication US12630600B2 (MEDIMMUNE LIMITED, priority 2022, dated 2026).

Chains of the proteins cited; added tags and fusions are not shown. Residues count along the entry.
UniProt P43220, 24-463: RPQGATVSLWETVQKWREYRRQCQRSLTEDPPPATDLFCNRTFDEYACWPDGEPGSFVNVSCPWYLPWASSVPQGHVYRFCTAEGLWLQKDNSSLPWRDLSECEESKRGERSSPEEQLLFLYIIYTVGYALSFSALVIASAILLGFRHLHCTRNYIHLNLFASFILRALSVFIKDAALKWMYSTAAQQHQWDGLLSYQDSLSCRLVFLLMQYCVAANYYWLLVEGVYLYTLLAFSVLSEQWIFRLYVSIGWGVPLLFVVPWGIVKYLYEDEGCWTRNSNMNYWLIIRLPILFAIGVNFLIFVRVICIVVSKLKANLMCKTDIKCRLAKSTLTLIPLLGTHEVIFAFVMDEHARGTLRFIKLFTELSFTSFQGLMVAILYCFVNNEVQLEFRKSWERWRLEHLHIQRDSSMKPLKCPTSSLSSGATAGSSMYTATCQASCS

The target in series [1] is T1, human GLP-1 receptor (hGLP-1R) (Homo sapiens, UniProt P43220).
T1 construct: expressed in transfected cells; host or cells: CHO
The series can be described thus: cAMP production (HTRF) in CHO cells expressing human GLP-1 receptor. The following applies: Table 6; % GLP-1R activity relative to GLP-1 / % GlucR activity relative to glucagon. Format: cell-based. Here is the method: Cells were re-suspended in assay buffer at a batch-dependent optimized concentration (typically hGLP-1R cells at 1×10^5 cells/mL, hGCGR cells at 2×10^5 cells/mL).
Cells were added to the assay plate using a multidrop dispenser and incubated at room temperature for 30 minutes before measuring the cAMP level using a cAMP dynamic 2 homogeneous time resolved Fluorescence (HTRF) kit (Cisbio Bioassays #62AM4PEJ) following the two-step protocol as per manufacturer's recommendations. In brief, anti-cAMP cryptate (donor fluorophore) and cAMP-d2 (acceptor fluorophore) were made up separately by diluting each 1 in 20 in conjugate and lysis buffer provided in the kit. Anti-cAMP cryptate was added to all wells of the assay plate, followed by cAMP-d2 added to all wells except non-specific binding (NSB) wells (to which conjugate and lysis buffer was added).
Data was transformed to % Delta F as described in the manufacturer's guidelines and analyzed by 4-parameter logistic fit to determine EC50 values.

Series [2] can be described thus: Pharmacokinetic profiling in mouse (i.v., s.c.). The conditions noted are these: Mouse C57bl/6, i.v., 10 nmol/kg. The text has this:
Selected test peptides (n=8) were profiled for pharmacokinetic (PK) properties in the mouse after single intravenous (i.v.) or subcutaneous (s.c.) dose. A subset (n=4) meeting the acceptance criteria was subsequently profiled in the dog (single i.v. dose) and non-human primate (single i.v. and s.c. dose). […] Low-binding plasticware containers were used during preparation and sample handling to avoid non-specific binding.
After dosing, PK samples were collected from the dorsal metatarsal vein. Blood of each sample was transferred into plastic micro centrifuge tubes containing EDTA-K2, inverted several times for proper mixing of contents and then placed on wet ice. The blood samples were centrifuged at 4° C. to obtain plasma and stored at −75° C. prior to analysis.
Samples analysis: Samples were analyzed by LC-MS/MS. Calibration standards were injected at the beginning and end of each batch and the determined concentration for each prepared standard was used to construct a calibration curve. Plasma and dose aliquot sample concentrations were determined from the plasma calibration curve.
Data analysis: Plasma concentration data was analyzed by non-compartmental analysis (NCA) using Phoenix Winnonlin v. 8.3.3.33. […] Subcutaneous bioavailability was calculated as the ratio AUC(s.c.)0-inf/AUC(i.v.)0-inf. […]

For the substance “H-Aib-Q-G-T-F-T-S-D-V-S-K-αMePhe-L-D-T-K-R-A-R-D-F-V-Q-W-L-L-E-Aib-G-acid [Peptide 195]”, the “% Relative Potency Ratio” value in series [1] came to 2.2. Besides, the Half-life i.v. administration in series [2] is 11 h.
